Source: paper PMC5055294 (PLoS ONE, 2016)

Tests used:
CCRL2 [1] = details: ref [21],[22]; cited from earlier work
From the text: […]. CMKLR1 is coupled to the Gi/o family of G proteins and in cells ...

CCRL2 [2] = test: Binding and competition, [^125I]-CCL19 tracer, CCRL2; parameters: species or system human; details: CHO-K1 cells expressing CCRL2, 0.1 nM [^125I]-CCL19

## CCL19: chemokine
CCRL2 [1]
  binding to CCRL2: reported to bind CCL19 in the absence of signaling

## CCL5: chemokine
CCRL2 [2]; excess unlabeled competitor (300nM), triplicates
  competition for binding of CCL19: did not competed for the binding of CCL19 to CCRL2

## radio-labelled CCL19: radio-labelled chemokine tracer [reference compound]
CCRL2 [2]
  specific binding of radio-labelled CCL19: relatively weak compared to chemerin binding
